Test system: SU-DHL-4 diffuse large B-cell lymphoma xenograft
Assay: SU-DHL-4 DLBCL xenograft model in mice
Conditions: 100 mg/kg oral 1×/day
Procedure: 10 μL the cell proliferation reagent CCK-8 (WST-8) was added into each well and incubated at 37° C./5% CO2 for 3-4 hr and the absorbance at 450 nm measured with an En Vision Plate Reader.
5×10^6 MV-4-11 or 1×10^7 SU-DHL-4 cells were collected and re-suspended in 0.1 mL of serum-free media with Matrigel (1:1 v/v) per mouse for subcutaneous inoculation in isoflurane anesthetized male BALB/c nude or C.B-17 scid mice, respectively (treated in accordance with AAALAC animal welfare guidelines). When the average tumor volumes reached 100-200 mm^3, tumor volume outliers were removed and the remaining animals randomly divided into groups of 6-8 with similar average tumor volumes in each group. […] Animals were intravenously dosed at 25 mg/kg, 50 mg/kg or 100 mg/kg 1×/week for 3 or 4 weeks. The appearance and behavior of each mouse was observed and recorded daily. Body weights and tumor volumes were measured and recorded every 2-4 days and the results were expressed as group means±SEM. Pairwise statistical comparisons between groups were performed by one-way ANOVA, and p<0.05 was considered statistically significant.

`Cc1sc2c(c1C)C(c1ccc(Cl)cc1)=N[C@@H](CC(=O)Nc1ccc(O)cc1)c1nnc(C)n1-2` [OTX-015, reference compound] gave a T/C value of 45%.

— patent publication US12540143B2, “Methods and compositions for targeted protein degradation” (Ranok Therapeutics (Hangzhou) Co. Ltd., priority 2019, dated 2026)
